Test results from patent US20050020588A1, “Cysteine protease inhibitors” (priority 1999, published 2005).
Like-named read-outs stand apart in the source and are kept apart here.

Chains of the proteins cited; added tags and fusions are not shown. Residues count along the entry.
UniProt P43235, 115-329 limits assumed: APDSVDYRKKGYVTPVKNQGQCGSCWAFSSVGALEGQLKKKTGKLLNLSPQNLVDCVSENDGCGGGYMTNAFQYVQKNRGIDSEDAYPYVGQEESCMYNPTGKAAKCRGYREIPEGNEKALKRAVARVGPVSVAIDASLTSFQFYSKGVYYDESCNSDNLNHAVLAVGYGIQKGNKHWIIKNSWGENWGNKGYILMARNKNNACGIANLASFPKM
UniProt P25774, 115-331 limits assumed: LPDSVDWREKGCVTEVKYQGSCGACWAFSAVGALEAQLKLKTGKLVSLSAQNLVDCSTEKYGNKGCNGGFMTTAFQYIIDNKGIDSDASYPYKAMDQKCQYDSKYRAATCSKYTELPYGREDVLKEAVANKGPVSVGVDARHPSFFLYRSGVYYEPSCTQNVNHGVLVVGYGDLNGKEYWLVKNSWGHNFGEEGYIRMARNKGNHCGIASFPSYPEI
UniProt P07711, 114-333 limits assumed: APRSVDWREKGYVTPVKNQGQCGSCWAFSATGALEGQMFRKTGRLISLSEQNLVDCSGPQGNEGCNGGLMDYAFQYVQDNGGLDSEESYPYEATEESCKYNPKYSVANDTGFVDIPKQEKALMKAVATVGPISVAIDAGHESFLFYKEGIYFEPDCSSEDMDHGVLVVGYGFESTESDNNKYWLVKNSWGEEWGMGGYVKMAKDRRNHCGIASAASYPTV
UniProt Q02765, 113-330 limits assumed: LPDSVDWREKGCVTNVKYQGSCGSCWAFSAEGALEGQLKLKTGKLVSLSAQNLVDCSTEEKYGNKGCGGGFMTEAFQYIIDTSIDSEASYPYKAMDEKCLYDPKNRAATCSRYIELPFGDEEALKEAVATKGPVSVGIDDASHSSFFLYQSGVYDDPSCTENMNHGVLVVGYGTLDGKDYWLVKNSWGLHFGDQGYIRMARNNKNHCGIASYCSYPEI

Experiments:
[1] = molecular target: Mammalian Cathepsin K (Homo sapiens, UniProt P43235); assay: Ki competitive inhibition, cathepsin K; settings: read-out: Ki competitive inhibition measurements vs Mammalian Cathepsin K; Table 1, third line of each CAP-P2 block
Protocol: (§1) Assays were performed essentially as above. For cathepsin L, the buffer used was 100 mM sodium acetate, 1 mM EDTA, pH 5.5 and the substrate was D-Val-Leu-Lys-AMC with a highest concentration of 100 μM. For cathepsin K, the buffer used was 100 mM MES/Tris, 1 mM EDTA, pH 7.0 and the substrate was D-Ala-Leu-Lys-AMC with a highest concentration of 250 μM.
Convenient assays for cathepsin K arere carried out using human recombinant enzyme. Standard assay conditions for the determination of kinetic constants used a fluorogenic peptide substrate, typically H-D-Ala-Leu-Lys-AMC, and were determined in either 100 mM Mes/Tris, pH 7.0 containing 1 mM EDTA and 10 mM 2-mercaptoethanol or 100 mM Na acetate, pH 5.5 containing 5 mM EDTA and 20 mM cysteine. The enzyme concentration used was 5 nM. The stock substrate solution was prepared at 10 mM in DMSO. Screens were carried out at a fixed substrate concentration of 60 μM and detailed kinetic studies with doubling dilutions of substrate from 250 μM. The total DMSO concentration in the assay was kept below 3%. All assays were conducted at ambient temperature. Product fluorescence (excitation at 390 nm, emission at 460 nm) was monitored with a Labsystems Fluoroskan Ascent fluorescent plate reader. Product progress curves were generated over 15 minutes following generation of AMC product.
Potential inhibitors are screened using the above assay with variable concentrations of test compound. Reactions were initiated by addition of enzyme to buffered solutions of substrate and inhibitor. Ki values were calculated according to equation 1 [formula] where ν0 is the velocity of the reaction, V is the maximal velocity, S is the concentration of substrate with Michaelis constant of KM, and I is the concentration of inhibitor. Determination of Falcipain 2 Proteolytic Catalytic Activity

[2] = molecular target: Mammalian Cathepsin S (Homo sapiens, UniProt P25774); assay: Ki competitive inhibition, mammalian cathepsin S
Protocol: (§2) Cathepsin S (Mammalian, murine and rat)
(§3) Assays were performed in 100 mM sodium phosphate, 100 mM NaCl, pH 6.5 (buffer) in white 384 well plates (Coming Costar). Eight inhibitors were assayed per plate.
(§4) Inhibitor dilutions were performed on a 96 well V-bottomed polypropylene plate (Corning Costar). 100 μl of buffer was placed in wells 2-5 and 7-12 of rows A, B, C and D. Sufficient of each inhibitor at 10 mM in DMSO was placed into wells A1-D1 and A6-D6 to give the desired final concentration when the volume in the well was made up to 200 μl with buffer. Column 1 was made up to 200 μl with buffer, mixed by aspirating and dispensing 100 μl in the well, and 100 μl transferred to column 2. The pipette tips were changed and the mixing and transferral repeated to column 5. This process was repeated for columns 6-10.
(§5) Substrate dilutions were performed on a 96 deep well polypropylene plate (Beckman Coulter). 280 μl of buffer was placed in wells B-H of columns 1 and 2.70 μl of 10 mM boc-Val-Leu-Lys-AMC was placed in A1 and A2. 2×250 μl of buffer was added to wells A1 and A2, mixed by aspirating and dispensing 280 μl in the well, and 280 μl transferred to row B. The pipette tips were changed and the process repeated down the plate to row H.
(§6) Column 1 of the substrate dilution plate was distributed at 10 μl per well into alternate rows beginning at row A. Column 2 was distributed to alternate rows beginning at row B. Row A of the inhibitor dilution plate was distributed at 10 μl per well to alternate rows and columns starting at A1. Row B was distributed to alternate rows and columns starting at A2. Row C was distributed to alternate rows and columns starting at B1 and row D was distributed to alternate rows and columns starting at B2. The assay was started by the addition of 30 μl per well of 20 nM cathepsin S in buffer containing 10 mM 2-mercaptoethanol.
(§7) Data were saved as text files and imported into Excel. The initial rates were determined by linear regression and then fitted to the competitive inhibition equation using SigmaPlot.

[3] = molecular target: Mammalian Cathepsin L (Homo sapiens, UniProt P07711); assay: Ki competitive inhibition, cathepsin L; settings: read-out: Ki competitive inhibition measurements vs Mammalian Cathepsin L; Table 1, second line of each CAP-P2 block
Protocol: as §7, §1

[4] = molecular target: Rat Cathepsin S (Rattus norvegicus, UniProt Q02765); assay: Ki competitive inhibition, rat cathepsin S; settings: read-out: Ki (μM) Rat, Rat Cathepsin S; Table 2, Rat
Protocol: as §2, §3, §4, §5, §6, §7

[5] = molecular target: Murine Cathepsin S (Mus musculus, UniProt O70370); assay: Ki competitive inhibition, murine cathepsin S; settings: read-out: Ki (μM) Mouse, Murine Cathepsin S; Table 2, Mouse
Protocol: as §2, §3, §4, §5, §6, §7

[6] = read-out: Ki competitive inhibition measurements vs Mammalian Cathepsin S, Table 1, first line of each CAP-P2 block
[7] = read-out: Ki (μM) Human, Mammalian Cathepsin S, Table 2, Human

Row | Structure (SMILES) | Ki [1] | Ki [2, 6] | Ki [3] | Ki [2, 7] | Ki [4] | Ki [5]
1 | CC(C)CC[C@H](NC(=O)CCc1ccccc1)C(=O)N[C@@H]1C(=O)CO[C@@H]1C | 13000 nM | 3.2 µM | 55800 nM |  |  | 
2 | C[C@H]1OCC(=O)[C@H]1NC(=O)[C@H](CC(C)(C)C)NC(=O)CCc1ccccc1 | 5700 nM | 0.94 µM | 87100 nM |  |  | 
3 | CC(C)CC[C@H](NC(=O)N1CCOCC1)C(=O)N[C@@H]1COCC1=O | 16400 nM | 0.46 µM | 58200 nM |  |  | 
4 | CC(C)CC[C@H](NC(=O)c1ccoc1)C(=O)N[C@@H]1C(=O)CO[C@H]1C [CAP8-L-hLeu/drawing 71] |  |  |  | 0.54 µM | 2.31 µM | 0.895 µM
5 | CC(C)C(C)(C)C[C@H](NC(=O)c1ccsc1)C(=O)N[C@@H]1C(=O)CO[C@H]1C | 10000 nM | 0.256 µM | 99400 nM | 0.256 µM |  | 
6 | C[C@H]1OCC(=O)[C@H]1NC(=O)[C@H](CC(C)(C)C)NC(=O)c1ccccc1 | 850 nM | 0.42 µM | 6600 nM |  |  | 
7 | CC[C@@H]1OCC(=O)[C@H]1NC(=O)[C@H](CC(C)(C)CC)NC(=O)c1ccoc1 | 2970 nM | 0.06 µM | > 100000 nM | 0.06 µM |  | 
8 | Cc1cc(C(=O)N[C@@H](CC(C)C)C(=O)N[C@H]2COCC2=O)oc1C | 440 nM | 0.55 µM | 140 nM |  |  | 
9 | CC(C)CC[C@H](NC(=O)N1CCOCC1)C(=O)N[C@H]1COCC1=O | 21600 nM | 0.25 µM | 71500 nM |  |  | 
10 | CC(C)C(C)(C)C[C@H](NC(=O)c1ccoc1)C(=O)N[C@@H]1C(=O)CO[C@H]1C | > 100000 nM | 0.236 µM | 65600 nM | 0.236 µM | 0.58 µM | 0.294 µM
11 | CC[C@@H]1OCC(=O)[C@H]1NC(=O)[C@H](CC(C)(C)C)NC(=O)c1ccsc1 | 325 nM |  | 14500 nM |  | 0.048 µM | 0.024 µM
12 | Cc1cc(C(=O)N[C@@H](CC(C)C)C(=O)N[C@@H]2C(=O)CO[C@@H]2C)oc1C | 440 nM | 0.51 µM | 120 nM |  |  | 
13 | C[C@H]1OCC(=O)[C@H]1NC(=O)[C@H](CC(C)(C)C)NC(=O)c1ccoc1 | 1300 nM | 0.18 µM | 39000 nM |  |  | 
14 | C[C@@H]1OCC(=O)[C@H]1NC(=O)[C@H](Cc1ccc(O)cc1)NC(=O)c1ccc(O)cc1 | > 100000 nM | 0.77 µM | 1400 nM |  |  | 
15 | CC(C)C[C@H](NC(=O)c1ccoc1)C(=O)N[C@H]1C(=O)CO[C@H]1C | 3700 nM | 0.39 µM | 28400 nM |  |  | 
16 | CC(C)CC[C@H](NC(=O)c1ccsc1)C(=O)N[C@@H]1C(=O)CO[C@H]1C |  |  |  | 0.28 µM |  | 
17 | CCC(C)(C)C[C@H](NC(=O)c1ccsc1)C(=O)N[C@@H]1C(=O)CO[C@H]1C | 5950 nM | 0.2 µM | 79600 nM | 0.2 µM |  | 
18 | Cc1cc(C(=O)N[C@@H](Cc2ccc(O)cc2)C(=O)N[C@@H]2C(=O)CO[C@H]2C)oc1C | > 100000 nM | 2.7 µM | 250 nM |  |  | 
19 | CC[C@@H]1OCC(=O)[C@H]1NC(=O)[C@H](CC(C)(C)C(C)C)NC(=O)c1ccsc1 | 1940 nM | 0.021 µM | 90800 nM | 0.021 µM | 0.657 µM | 0.091 µM
20 | CCC(C)(C)C[C@H](NC(=O)c1ccoc1)C(=O)N[C@@H]1C(=O)CO[C@H]1C | 30200 nM | 0.21 µM | > 100000 nM | 0.21 µM | 0.518 µM | 0.263 µM
21 | CCn1nc(C)cc1C(=O)N[C@@H](Cc1ccc(O)cc1)C(=O)N[C@@H]1C(=O)CO[C@@H]1C | > 100000 nM | 4.8 µM | 60 nM |  |  | 
22 | CC[C@@H]1OCC(=O)[C@H]1NC(=O)[C@H](CC(C)(C)CC)NC(=O)c1ccsc1 | 1040 nM | 0.057 µM | 54600 nM | 0.057 µM |  | 
23 | CC(C)C[C@H](NC(=O)c1ccccc1)C(=O)N[C@@H]1C(=O)CO[C@@H]1C | 430 nM | 0.43 µM | 310 nM |  |  | 

The remaining lines, values ahead:

Row | Ki [1] | Ki [2, 6] | Ki [3] | Ki [2, 7] | Ki [4] | Ki [5] | Structure (SMILES)
24 | 13400 nM | 0.57 µM | 21100 nM |  |  |  | CCCC[C@H](NC(=O)c1ccc(O)cc1)C(=O)N[C@H]1C(=O)CO[C@H]1C
25 | 910 nM | 0.24 µM | 68100 nM |  |  |  | CC(C)(C)C[C@H](NC(=O)c1ccoc1)C(=O)N[C@@H]1COCC1=O
26 | 3100 nM | 0.68 µM | 15100 nM |  |  |  | CC(C)CC[C@H](NC(=O)c1ccc(O)cc1)C(=O)N[C@@H]1C(=O)CO[C@@H]1C
27 | 320 nM | 0.17 µM | 2040 nM |  |  |  | CC(C)C[C@H](NC(=O)c1ccc(O)cc1)C(=O)N[C@@H]1C(=O)CO[C@H]1C
28 | 15 nM | 2.8 µM | 690 nM |  |  |  | CC(C)C[C@H](NC(=O)c1ccc(N(C)C)cc1)C(=O)N[C@@H]1C(=O)CO[C@@H]1C
29 | 6600 nM | 0.8 µM | 5100 nM |  |  |  | CC(C)CC[C@H](NC(=O)c1ccccc1)C(=O)N[C@H]1COCC1=O
30 | > 100000 nM | 1.5 µM |  |  |  |  | Cc1cc(C(=O)N[C@@H](Cc2ccc(O)cc2)C(=O)N[C@H]2COCC2=O)oc1C
31 | 70 nM | 0.23 µM | 240 nM |  |  |  | CC(C)C[C@H](NC(=O)c1ccc(O)cc1)C(=O)N[C@H]1COCC1=O
32 | 16300 nM | 0.66 µM | 49700 nM |  |  |  | CC(C)CC[C@H](NC(=O)c1ccoc1)C(=O)N[C@H]1COCC1=O
33 | 130 nM | 5.7 µM | 15200 nM |  |  |  | CCCC[C@H](NC(=O)c1ccc(N(C)C)cc1)C(=O)N[C@@H]1COCC1=O
34 | > 100000 nM | 1.8 µM | 360 nM |  |  |  | O=C(N[C@@H](Cc1ccc(O)cc1)C(=O)N[C@@H]1COCC1=O)c1ccccc1
35 | > 100000 nM | 0.72 µM | 350 nM |  |  |  | O=C(N[C@@H](Cc1ccc(O)cc1)C(=O)N[C@@H]1COCC1=O)c1ccc(O)cc1
36 | 260 nM | 5.4 µM | 10200 nM |  |  |  | CCCC[C@H](NC(=O)c1ccc(N(C)C)cc1)C(=O)N[C@H]1COCC1=O
37 | 240 nM | 4.1 µM | 10500 nM |  |  |  | CCCC[C@H](NC(=O)c1ccc(N(C)C)cc1)C(=O)N[C@@H]1C(=O)CO[C@@H]1C
38 | 83 nM | 0.49 µM | 480 nM |  |  |  | CC(C)C[C@H](NC(=O)c1ccc(O)cc1)C(=O)N[C@@H]1C(=O)CO[C@@H]1C
39 | 210 nM | 0.36 µM | 150 nM |  |  |  | CC(C)C[C@H](NC(=O)c1ccccc1)C(=O)N[C@H]1COCC1=O
40 | 150 nM | 3.7 µM | 4900 nM |  |  |  | CC(C)C[C@H](NC(=O)c1ccc(N(C)C)cc1)C(=O)N[C@@H]1C(=O)CO[C@H]1C
